Assay results taken from PubChem BioAssay AID1510 (The Scripps Research Institute Molecular Screening Center, 2009).
The entries are a selection whose mix differs from that of the whole data set. Some of these compounds have results that are not shown, active ones among them. Active and inactive are the calls of the source. Cut-off read from the data, not from the text of the source: active = inhibition above about 29%; inactive = the rest.

Protein sequences, listed by entry. Tags and fused reporters are not part of them.
UniProt O95977, whole entry: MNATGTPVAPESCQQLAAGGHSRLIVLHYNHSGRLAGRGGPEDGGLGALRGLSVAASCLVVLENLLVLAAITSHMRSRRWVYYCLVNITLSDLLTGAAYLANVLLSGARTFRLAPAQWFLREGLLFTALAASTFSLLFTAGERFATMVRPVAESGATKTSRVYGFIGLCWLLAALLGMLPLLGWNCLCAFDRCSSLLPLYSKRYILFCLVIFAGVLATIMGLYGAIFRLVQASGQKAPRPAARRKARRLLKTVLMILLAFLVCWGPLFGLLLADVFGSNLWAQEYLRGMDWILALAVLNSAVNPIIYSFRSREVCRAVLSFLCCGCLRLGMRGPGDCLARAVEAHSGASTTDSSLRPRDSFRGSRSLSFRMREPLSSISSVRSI

Target: Sphingosine 1-phosphate receptor 4 (Homo sapiens) (UniProt O95977)
Experiment: S1P4 receptor antagonists, primary screen, cell-based (AID 1510);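 note: 0% = wells stimulated with agonist and 100% = vehicle wells without agonist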
Conditions: S1P4-expressing cells, antagonist mode, reporter read-out; at 4.98 µM; active compounds read high

| Structure (SMILES) | inhibition |
| --- | --- |
| COc1ccc(Br)c(C(=O)NCC2(N3CCCCC3)CCCCC2)c1 | inactive: 16.3% |
| CN(C)c1cccc(C(=O)NCC2(N(C)C)CCCCC2)c1 | inactive: -7.64% |
| O=C(OC1CN2CCC1CC2)C(CO)(c1ccccc1)c1ccccc1 (stereo unspecified) | inactive: -9.32% |
| COc1cccc(C(=O)NCC2(N3CCCCC3)CCCCC2)c1 | inactive: 0.34% |
| C=CCN1CCN(CCOC(=O)C(O)(c2ccccc2)c2ccccc2)CC1 | inactive: -0.88% |
| CCN1CCCC(OC(=O)C2(O)c3ccccc3C=Cc3ccccc32)C1 (stereo unspecified) | inactive: -14.8% |
| CN(C)C1CCCC1OC(=O)C(O)(c1ccccc1)c1ccccc1 (stereo unspecified) | inactive: -17.4% |
| Cc1ccccc1C(=O)NCC1(N2CCCCC2)CCCCC1 | inactive: -18.3% |
| CCN(CC)CC(C)C(C)OC(=O)C(O)(c1ccccc1)c1ccccc1 (stereo unspecified) | inactive: -4.56% |
| CC(C)N1C(=O)CC2(CCN(CCOC(=O)C(O)(c3ccccc3)c3ccccc3)CC2)C1=O | inactive: -17.1% |
| O=C(NCC1(N2CCCCC2)CCCCC1)c1cc([N+](=O)[O-])ccc1Cl | inactive: 22.9% |
